The source of these data is ChEMBL document CHEMBL1156785, “Discovery of 4-[(2S)-2-{[4-(4-chlorophenoxy)phenoxy]methyl}-1-pyrrolidinyl]butanoic acid (DG-051) as a novel leukotriene A4 hydrolase inhibitor of leukotriene B4 biosynthesis” (J Med Chem, 2010).

In experiment [1] the target is T1, Leukotriene A-4 hydrolase (Homo sapiens, UniProt P09960).
T1 sequence (P09960 whole entry): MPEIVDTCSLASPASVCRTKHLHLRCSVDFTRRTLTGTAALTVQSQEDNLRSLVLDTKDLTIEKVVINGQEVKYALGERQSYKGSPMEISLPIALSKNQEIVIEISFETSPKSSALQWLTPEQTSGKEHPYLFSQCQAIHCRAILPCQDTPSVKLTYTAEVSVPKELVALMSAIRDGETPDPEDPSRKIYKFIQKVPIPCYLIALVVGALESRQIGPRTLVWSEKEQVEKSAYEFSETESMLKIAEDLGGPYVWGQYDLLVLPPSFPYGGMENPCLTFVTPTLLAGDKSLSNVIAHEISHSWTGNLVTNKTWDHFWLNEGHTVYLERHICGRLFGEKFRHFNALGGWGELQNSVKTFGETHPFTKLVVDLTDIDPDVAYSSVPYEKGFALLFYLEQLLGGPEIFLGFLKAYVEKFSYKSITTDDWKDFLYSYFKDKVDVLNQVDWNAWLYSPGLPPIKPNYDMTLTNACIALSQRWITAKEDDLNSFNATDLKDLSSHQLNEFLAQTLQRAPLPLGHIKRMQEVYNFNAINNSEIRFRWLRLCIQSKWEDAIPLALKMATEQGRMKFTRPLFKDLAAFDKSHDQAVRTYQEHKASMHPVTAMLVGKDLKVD
Kind of experiment: Binding affinity to human recombinant LTA4H by isothermal calorimetry. A general note: In ITC the heat of successive injections is recorded.

For experiment [2], the target named is T1, Leukotriene A-4 hydrolase.

The term Kd denotes the constant that tells how readily two partners part at equilibrium. One may read the IC50 as the concentration at which inhibition is half-maximal.

The structures appear in SMILES notation.

Consider `O=C(O)CCCN1CCC[C@H]1COc1ccc(Oc2ccc(Cl)cc2)cc1`, for which the Kd in experiment [1] was determined as 0.025 µM. The same compound yielded an IC50 in experiment [2] of 0.047 µM.

For `O=C(c1ccncc1)c1ccc(OCCN2CCCC2)cc1`, the 50% inhibitory concentration (IC50) in experiment [2] came out at 199 µM.

For `c1ccc(Cc2ccc(OC[C@H]3CCCN3)cc2)cc1`, the IC50 in experiment [2] came out at 0.087 µM.

`O=C(c1ccncc1)c1ccc(F)cc1` displayed an IC50 in experiment [2] of 5380 µM.
